The source of these data is patent US6497872B1, “Neural transplantation using proliferated multipotent neural stem cells and their progeny” (NeuroSpheres Holdings Ltd., priority 1991, dated 2002).

This test concerns Primary striatal cells. Briefly: Striatum-derived neurosphere proliferation in response to proliferative and regulatory factors (Example 43, Paradigm 1). The test is classed as cell-based, mouse. On the set-up: key to Size of neurospheres compared to PROLIFERATIVE FACTORS alone: ++: much larger; +: larger; =: approximately the same size; ˜: variable in size; −: smaller; −−: much smaller. The note with it: for Numbers of neurospheres generated (#): decrease (−) or increase (+) per well compared with absence of the REGULATORY FACTOR: 10-12 days. As for the experimental part:
Paradigm 1: Primary striatal cells prepared as outlined in Example 1 were suspended in Complete Medium, without growth factors, plated in 96 well plates (Nunclon) and incubated as described in Example 4. Following a one hour incubation period, a specific proliferative factor, or a combination of proliferative factors including EGF, or bFGF (recombinant human bFGF: R & D Systems), or a combination of EGF and bFGF, or EGF plus FGF plus heparan sulfate (Sigma), or bFGF plus heparan sulfate made up in Complete Medium at a concentration of 20 ng/ml for each of the growth factors and 2 μg/ml for heparan sulfate), was added to each well of the plate.
Activin, BMP-2, TGF-β, IL-2, IL-6, IL-8, MIP-1∂, MIP-1β, MIP-2 (all obtained from Chiron Corp.), TNFα, NGF (Sigma), PDGF (R&D Systems), EGF and CNTF (R. Dunn and P. Richardson, McGill University) were made up in separate flasks of compete medium to a final concentration of 0.2 μg/ml. Retinoic acid (Sigma) was added at a concentration of 10^−6 M. 10 μl of one of these regulatory factor-containing solutions was added to each proliferative factor-containing well of the 96 well plates. Control wells, containing only proliferative factors, were also prepared.
[…] None of these regulatory factors, with the exception of EGF, when used in the absence of a proliferation-inducing factor such as EGF or FGF, has an effect on neural stem cell proliferation.
The activin, BMP-2, TGF-β. IL-2, IL-6, IL-8, MIP-1∂, MIP-1β, MIP-2, TNFα and EGF additions were repeated every second day, CNTF which was added each day and retinoic acid, NGF and PDGF were added only once, at the beginning of the experiment. The cells were incubated for a period of 10-12 days. The number of neurospheres in each well was counted and the resulting counts tabulated using Cricket Graph III. Other relevant information regarding sphere size and shape were also noted.

Where [1] appears, read: PROLIFERATIVE FACTORS EGF + bFGF.
Where [2] appears, read: PROLIFERATIVE FACTORS EGF + bFGF + Heparan.
[3] abbreviates: PROLIFERATIVE FACTORS bFGF + Heparan.

B1: BMP-2: bone morphogenic protein (BMP-2), Chiron Corp. (protein, UniProt P12643 283-396, looked up)
Bone morphogenetic protein 2: QAKHKQRKRLKSSCKRHPLYVDFSDVGWNDWIVAPPGYHAFYCHGECPFPLADHLNSTNHAIVQTLVNSVNSKIPKACCVPTELSAISMLYLDENEKVVLKNYQDMVVEGCGCR
With B1, the “Numbers of neurospheres generated (#): decrease (−) or increase (+) per well compared with absence of the REGULATORY FACTOR” value (PROLIFERATIVE FACTOR EGF 20 ng/ml) is on record as −100%; the “Numbers of neurospheres generated (#): decrease (−) or increase (+) per well compared with absence of the REGULATORY FACTOR” value (PROLIFERATIVE FACTOR bFGF 20 ng/ml) is recorded as −5%; the “Numbers of neurospheres generated (#): decrease (−) or increase (+) per well compared with absence of the REGULATORY FACTOR” value under setting [2] is listed as “+10%”; the “Numbers of neurospheres generated (#): decrease (−) or increase (+) per well compared with absence of the REGULATORY FACTOR” value under setting [1] is listed as “+16%”; the “Numbers of neurospheres generated (#): decrease (−) or increase (+) per well compared with absence of the REGULATORY FACTOR” value under setting [3] was −3%. Further, the “Size of neurospheres compared to PROLIFERATIVE FACTORS alone” value by setting is: (PROLIFERATIVE FACTOR bFGF) “=”; under setting [1], “−−”; under setting [2], “−−”; under setting [3], “−”. Moreover, for the setting “dose of 10 ng/ml”, the “neurosphere proliferation in response to EGF” value is given as “completely abolished neurosphere proliferation”.
